Earlier results in patent US9983196B2, “Compositions and methods for optimizing drug hydrophobicity and drug delivery to cells” (Bioelastics, Inc., priority 2009, dated 2018).

What was measured:
[1] = guest residue χ in poly[fχ(GχGVP),fv(GVGVP)], extrapolated to fχ=1; some cells marked (Tt); cited from earlier work
[2] = cited from earlier work

Substance | Tt [1] | ΔG°HA(GχGVP) (from graph) ([2]; Tt used to obtain value from experimental sigmoid curve of Tt versus ΔG°HA) | ΔG°HA(GχGVP) ([2]; DSC, reference GGGVP = 0) [kcal/mol-pentamer]
Arg [R: Arg] | 60 (Tt) ° C. | +0.80 (from graph) kcal/mol-pentamer | –
Ala [A: Ala] | 50 °C | – | −0.75
